In patent US9822414B2, “In vitro method for predicting in vivo genotoxicity of chemical compounds” (priority 2011, dated 2017):
“And” between values parts separate entries of the source, which are not always exact repeats. Equal entries are not always repeated.

What was measured:
HepG2 cell [1] = tested on: HepG2 cell
PWWP2B = experiment: Gene expression of PWWP2B in HepG2 cells exposed to compound (microarray, log2 treatment:control ratio); format: cell-based, human
HepG2 cell [2] = experiment: Class prediction of in vivo genotoxicity by the method of the invention (Ames stratification plus three-gene expression in HepG2); conditions: 62 compounds, three replicates, HepG2 24 h
Salmonella typhimurium = conditions: cited from earlier work

CCN(CC)N=O [DEN]
At least ⅔ genes +? (HepG2 cell [1]): GTX | Average result over three measurements (HepG2 cell [1]): GTX | Log2 treatment: control ratio PWWP2B (PWWP2B): 0.087 and 0.095 and 0.056 | Prediction (class prediction results using the method of the invention) (HepG2 cell [2]): GTX | Ames (Salmonella typhimurium): +
